{
  "sequences": {"note": "Amino acid sequences for entries named in this document (tags omitted).", "UniProt Q61143, whole entry": "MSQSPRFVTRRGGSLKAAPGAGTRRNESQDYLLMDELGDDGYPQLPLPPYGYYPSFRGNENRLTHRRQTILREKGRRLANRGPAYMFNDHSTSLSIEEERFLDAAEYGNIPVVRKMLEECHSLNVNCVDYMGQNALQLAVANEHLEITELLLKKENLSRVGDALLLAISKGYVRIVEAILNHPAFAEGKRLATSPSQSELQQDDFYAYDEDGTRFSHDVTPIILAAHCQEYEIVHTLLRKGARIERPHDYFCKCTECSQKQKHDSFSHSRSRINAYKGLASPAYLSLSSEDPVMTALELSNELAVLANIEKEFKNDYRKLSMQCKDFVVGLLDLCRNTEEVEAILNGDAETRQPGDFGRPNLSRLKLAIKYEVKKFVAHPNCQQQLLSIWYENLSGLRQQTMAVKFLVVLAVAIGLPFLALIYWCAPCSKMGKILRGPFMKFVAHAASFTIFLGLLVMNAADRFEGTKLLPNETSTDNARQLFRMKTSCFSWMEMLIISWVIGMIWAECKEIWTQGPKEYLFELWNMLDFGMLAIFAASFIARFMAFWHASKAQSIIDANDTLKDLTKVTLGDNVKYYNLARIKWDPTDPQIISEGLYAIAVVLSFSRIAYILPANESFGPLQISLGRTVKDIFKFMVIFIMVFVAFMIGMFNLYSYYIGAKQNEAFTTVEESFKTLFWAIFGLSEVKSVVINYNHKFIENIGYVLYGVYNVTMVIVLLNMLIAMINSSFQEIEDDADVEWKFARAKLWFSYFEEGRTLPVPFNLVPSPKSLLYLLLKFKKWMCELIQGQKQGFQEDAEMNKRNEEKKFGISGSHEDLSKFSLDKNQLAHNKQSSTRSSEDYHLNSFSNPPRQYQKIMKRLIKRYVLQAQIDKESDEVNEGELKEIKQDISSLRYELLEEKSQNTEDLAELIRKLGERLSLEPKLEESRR"},
  "source": "PubChem BioAssay AID434950",
  "about": "(Johns Hopkins Ion Channel Center, 2010)",
  "note": "Only a part is listed here, and it is no random draw. Some tests of the compounds listed are not included; inactive here does not mean inactive elsewhere. Activity calls are given as the source filed them.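 How the source made its calls: active means membrane potential signal rise above negative control mean plus 3 SD in both duplicates, also active in the earlier TRPC4 screen; inactive means the rest.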",
  "data": [
    {"target": "Short transient receptor potential channel 6 (Mus musculus) (UniProt Q61143)", "experiment": "activation of mouse TRPC6 channel, confirmation, selectivity assay for TRPC4 activator project, cell-based, HEK293, membrane potential dye, duplicate (AID 434950);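 further: 0% = buffer only wells and 100% = acetylcholine maximal-effect wells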", "details": "HEK293 TRPC6, membrane potential fluorescence, at 10 µM, active compounds read high", "values": [
      {"compound": "CN(C)c1ccc(C(=O)NCC2(N(C)C)CCCCC2)cc1", "activation": "active: 28%"}
    ]}
  ]
}
